# scFv variants of Ab-14 (heavy chain) against a SARS-CoV-2 spike peptide

Values reported by Engelhart et al. 2022, doi:10.1038/s41597-022-01779-4 (FLAb copy).

Target: peptide PDVDLGDISGINAS, taken from heptad repeat 2 (HR2) of SARS-CoV-2 spike.

Ab-14 is the parent antibody, in scFv form: VH, then three GGGGS repeats, then VL. The light chain is unchanged in all variants.
VH: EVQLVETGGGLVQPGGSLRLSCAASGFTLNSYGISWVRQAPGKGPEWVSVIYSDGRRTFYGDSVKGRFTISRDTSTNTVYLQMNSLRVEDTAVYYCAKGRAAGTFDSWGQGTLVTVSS
VL: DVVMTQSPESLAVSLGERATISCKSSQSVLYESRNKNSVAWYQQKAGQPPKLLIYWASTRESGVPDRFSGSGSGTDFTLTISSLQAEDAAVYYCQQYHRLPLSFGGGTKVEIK

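Phage display of a naive human antibody library on the peptide gave the parent. The library (AAYL49) carries one to three amino acid substitutions per variant, with no insertions or deletions. In AlphaSeq, yeast of one mating type display the scFv and yeast of the other type display the target. The frequency of each diploid, read from paired DNA barcodes, reflects how well the two displayed proteins bind. Read counts were normalised to the haploid input and turned into Kd by a linear fit to BCL2-family pairs of known affinity, for each replicate. The assay was run in three technical replicates.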

Variants are written as CDR1, CDR2 and CDR3 of the heavy chain (limits as in the source). Parent: GFTLNSYGIS, VIYSDGRRTFYGDSVK, GRAAGTFDS.
Every variant below is changed at F59 of the VH (sequential numbering).
Kd is apparent (estimated from mating counts) and averaged on the log scale over replicates with a signal. Smaller is tighter.
An entry "nd" has no value in the source: the pair was not observed among the diploids in any replicate. This suggests poor binding but is not conclusive.

With GFTLNSSGIS / VIYSDGRRTAYGDSVK / GRAAGTFDS the result was 520 nM (1 of 3 replicates; controls 0 of 9). Variant GFAMNSYGIS / VIYSDGRRTQYGDSVK / GRAAGTFDS showed nd (0 of 3 replicates; controls 0 of 9). With WFTLNSYGIS / VIISDGRRTWYGDSVK / GRAAGTFDS the result was nd (0 of 3 replicates; controls 0 of 9). For GFTLNSYGIS / VIYSDGRRTLYGWSVK / GRAQGTFDS, the assay gave nd (0 of 3 replicates; controls 0 of 9). With GFTLNSYGIS / CIYSDGRRTLYGDSVK / GRAAGTFDH the result was nd (0 of 3 replicates; controls 0 of 9). Variant GFTLNSYGIS / VIYSDGRRTDYGPSVK / GRAKGTFDS showed nd (0 of 3 replicates; controls 1 of 9). With GFTLNSYGIS / HIYSHGRRTNYGDSVK / GRAAGTFDS the result was 1.8 µM (1 of 3 replicates; controls 0 of 9). Variant GFTLNCYGIS / VIYSDGRRTLYGDSVK / GSAAGTFDS showed 4.0 µM (1 of 3 replicates; controls 2 of 9). Variant GFTLNSYGIS / VIYSDGYHTEYGDSVK / GRAAGTFDS showed 4.7 µM (3 of 3 replicates; controls 2 of 9).

With GFTLNSYGIS / LIYSDGRRTQYGDSAK / GRAAGTFDS the result was nd (0 of 3 replicates; controls 0 of 9). With GFTLNSYGIS / VIYSDGRRTMYGDSVK / GRAAGTFDS the result was 51 nM (3 of 3 replicates; controls 4 of 9). Variant GFTLNFYGIS / VIYMDGRRTNYGDSVK / GRAAGTFDS showed nd (0 of 3 replicates; controls 0 of 9). Variant GFTLHSYGLS / VIYSDGRRTDYGDSVK / GRAAGTFDS showed 4.7 µM (2 of 3 replicates; controls 4 of 9). Variant GFTLNSYGIS / VIYSDGRETPYGDSVK / GRAFGTFDS showed 1.8 µM (1 of 3 replicates; controls 1 of 9). For GFTLNSYGIS / VIWSDGRRTWYGDLVK / GRAAGTFDS, the assay gave 120 µM (3 of 3 replicates; controls 3 of 9). Variant GFTLNSYGIS / VIYSDGRRTHYGDSVK / GRAAGTFDS gave 14 nM (3 of 3 replicates; controls 2 of 9). With GFTLNSYGIS / VIYSDRRRTGYGDSVK / GRAAGTFDS the result was nd (0 of 3 replicates; controls 0 of 9). Variant GFTLYSYGIS / VIYSDGRRTHYGDSVK / GSAAGTFDS showed 390 nM (3 of 3 replicates; controls 4 of 9).

For GFTLNSYGIS / VVYSDGGRTRYGDSVK / GRAAGTFDS, the assay gave 9.3 µM (1 of 3 replicates; controls 1 of 9). Variant GFTLNSYGIS / FCYSDGRRTPYGDSVK / GRAAGTFDS showed 800 µM (1 of 3 replicates; controls 5 of 9). For GFTANSYGIS / VIYSDGRRTAYGDSVK / GRLAGTFDS, the assay gave 11 nM (3 of 3 replicates; controls 4 of 9). Variant GFTLNSYGIS / VIYSDGRRTQSGDTVK / GRAAGTFDS gave 3.8 µM (1 of 3 replicates; controls 0 of 9). With GFTLNSYGIS / VIYSDGDNTLYGDSVK / GRAAGTFDS the result was nd (0 of 3 replicates; controls 1 of 9). For GFTLNSYGIS / VIYSDGRRTNYGQSVK / GRAAGTFCS, the assay gave nd (0 of 3 replicates; controls 0 of 9). Variant GFTLNSYGIS / NIYSAGRRTRYGDSVK / GRAAGTFDS showed nd (0 of 3 replicates; controls 0 of 9). Variant GFTLNSYGIS / VHYSDGRRTCYGDSVK / GRAAGTFDS gave nd (0 of 3 replicates; controls 0 of 9). Variant GNTLNSYGIS / VIYSDGRRTNYGDSVK / GRAIGTFDS gave 200 µM (2 of 3 replicates; controls 2 of 9).

Variant GFPLNSYGIS / VIYSDGRRTQYGDSVQ / GRAAGTFDS showed 12 µM (3 of 3 replicates; controls 8 of 9). For GFTLNSYGIS / VIYSDGRRTVYGDYVK / GRAAGTFDY, the assay gave 2.2 µM (3 of 3 replicates; controls 1 of 9). Variant GKTLNSYGIS / VCYSDGRRTAYGDSVK / GRAAGTFDS showed nd (0 of 3 replicates; controls 2 of 9). Variant GFTLNSYGIS / VIYSDGRRTIYADSVK / GRAAGTFDS showed 12 nM (3 of 3 replicates; controls 2 of 9). Variant GFTLNSFGIS / VGYSDGRRTRYGDSVK / GRAAGTFDS gave nd (0 of 3 replicates; controls 6 of 9). With GFTLNSYGIS / VIYYDGRRTNYGDSVK / GRAAGTADS the result was nd (0 of 3 replicates; controls 0 of 9).

Excerpt, the first 5 entries:

Variant GFTLNSSGIS / VIYSDGRRTAYGDSVK / GRAAGTFDS gave 520 nM (1 of 3 replicates; controls 0 of 9).
Variant GFAMNSYGIS / VIYSDGRRTQYGDSVK / GRAAGTFDS gave nd (0 of 3 replicates; controls 0 of 9).
Variant WFTLNSYGIS / VIISDGRRTWYGDSVK / GRAAGTFDS gave nd (0 of 3 replicates; controls 0 of 9).
Variant GFTLNSYGIS / VIYSDGRRTLYGWSVK / GRAQGTFDS gave nd (0 of 3 replicates; controls 0 of 9).
Variant GFTLNSYGIS / CIYSDGRRTLYGDSVK / GRAAGTFDH gave nd (0 of 3 replicates; controls 0 of 9).

For reference, the parent read 4.4 nM as the reference entry and 13 µM (one replicate of three) as a member of this library.
Background: pairings of library AAYL49 with three empty control strains gave a value in 15% of cases (median 11 µM, 5th percentile 680 nM). Values in that range, when seen in few replicates, are hard to tell from nonspecific mating. Also given: how often the same scFv was detected with the empty control strains.